## Binding of CDR-mutated scFvs to a peptide of the spike HR2 region

From the AlphaSeq antibody data of Engelhart et al. 2022 (doi:10.1038/s41597-022-01779-4), copy in the FLAb collection.

Target peptide (SARS-CoV-2 spike, HR2 region): PDVDLGDISGINAS

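The starting antibody came from a phage panning campaign against this peptide. Variants in AAYL51 differ from the parent at up to three CDR positions; double and triple changes were sampled at random. The assay is AlphaSeq: two haploid yeast populations carry antibody and antigen on their surface. Mating (16 h, 30 °C) was followed by selection of diploids and sequencing of their barcodes. Read counts were normalised to the haploid input and turned into Kd by a linear fit to BCL2-family pairs of known affinity, for each replicate. Mating was done three times.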

Each scFv is VL, a 15-residue (Gly4Ser)3 linker, VH, as in the parent Ab-91, and differs from it in the CDRs of the heavy chain only.
VL: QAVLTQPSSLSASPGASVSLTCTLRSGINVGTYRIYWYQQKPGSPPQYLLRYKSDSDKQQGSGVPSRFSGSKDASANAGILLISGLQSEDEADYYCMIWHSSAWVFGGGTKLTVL
VH: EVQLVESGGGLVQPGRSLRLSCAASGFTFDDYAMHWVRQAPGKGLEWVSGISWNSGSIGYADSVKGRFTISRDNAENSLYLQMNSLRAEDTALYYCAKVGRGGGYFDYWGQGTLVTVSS

Changes read parent residue, position, new residue, counted from the first residue of the VH shown. Values are log10 of the apparent Kd in nM; lower means stronger binding. The mean shown is taken over the replicates in which the pair was detected. "nd" marks a missing value. The strain was present, yet no cells mated with the target were sequenced in that replicate, which points to weak or no binding. For reference, the parent read 1.86 as the reference entry and 0.88 as a member of this library.

The variant I51E G103E Y105T showed 3.70, nd, nd (controls 0 of 9).
The variant F27D I58E S63Q showed nd, nd, nd (controls 0 of 9).
The variant G59W S63N G102Y showed nd, nd, nd (controls 0 of 9).
The variant D31R H35R Y105T showed nd, nd, nd (controls 0 of 9).
The variant F29C G59T G104S showed nd, nd, nd (controls 1 of 9).
The variant I51F G56A showed 4.74, nd, nd (controls 2 of 9).
The variant G50W S55P Y108C showed 4.40, 4.92, 5.22 (mean 4.85; controls 3 of 9).
The variant I51E S57M D107H showed nd, nd, nd (controls 0 of 9).
The variant I58A G104A F106P showed 0.90, 0.86, 0.29 (mean 0.68; controls 4 of 9).
The variant T28G I51A I58H showed nd, nd, nd (controls 0 of 9).
The variant N54S G56K Y108S showed 2.09, 2.28, 2.36 (mean 2.24; controls 0 of 9).
The variant M34Y S52Y G104M showed nd, nd, nd (controls 0 of 9).
The variant F27I H35I S57P showed nd, nd, nd (controls 0 of 9).
The variant F29G Y32I G59S showed 4.28, nd, nd (controls 1 of 9).
The variant S52R S57P showed 3.94, 5.38, nd (mean 4.66; controls 4 of 9).
The variant F27Y D62M showed 4.17, 3.80, 3.22 (mean 3.73; controls 0 of 9).
The variant D31S G103P Y105V showed nd, nd, nd (controls 0 of 9).
The variant Y32E S57V R101E showed nd, nd, nd (controls 0 of 9).
The variant D31W Y108Q showed 1.98, 1.77, 1.05 (mean 1.60; controls 0 of 9).
The variant G50E I58N D107Q showed 4.37, nd, nd (controls 2 of 9).
The variant F29T R101Y G102N showed 5.05, 4.92, nd (mean 4.99; controls 5 of 9).
The variant Y32Q S55T G100W showed nd, nd, nd (controls 1 of 9).
The variant F27L D31Q I58E showed 4.27, 4.74, 5.59 (mean 4.87; controls 6 of 9).
The variant T28D N54W S55Q showed nd, nd, nd (controls 2 of 9).
The variant H35F G100V G104I showed 5.00, nd, nd (controls 5 of 9).
The variant W53Q G59F showed 4.94, nd, 5.58 (mean 5.26; controls 6 of 9).
The variant T28F H35E I58R showed nd, nd, nd (controls 2 of 9).
The variant M34Q K65E G104C showed nd, nd, nd (controls 1 of 9).
The variant T28D D30V A61T showed 2.65, 2.96, 2.60 (mean 2.73; controls 0 of 9).
The variant S52R S57W Y105S showed nd, 4.01, nd (controls 3 of 9).
The variant F27C I58C V99F showed nd, nd, nd (controls 1 of 9).
The variant D30P Y32G M34E showed 4.04, 4.99, nd (mean 4.51; controls 5 of 9).
The variant G100S G104L Y105T showed nd, nd, nd (controls 2 of 9).
The variant D31Y G102Q G103D showed nd, nd, nd (controls 0 of 9).
The variant K65A G102S Y105M showed 4.33, 4.75, 4.55 (mean 4.54; controls 5 of 9).
The variant W53K K65I showed 3.60, nd, nd (controls 0 of 9).
The variant T28P R101S F106P showed nd, nd, 3.99 (controls 5 of 9).
The variant F29M S63Y R101M showed 3.98, 3.53, nd (mean 3.76; controls 3 of 9).
The variant G50T I51N A61G showed nd, nd, nd (controls 1 of 9).
The variant T28W A33P N54E showed 4.05, 5.66, 4.70 (mean 4.80; controls 3 of 9).
The variant D31F Y60C showed nd, nd, nd (controls 1 of 9).
The variant D62F V64I showed 3.43, 2.70, 3.74 (mean 3.29; controls 4 of 9).
The variant H35V W53A G102L showed nd, nd, nd (controls 0 of 9).
The variant Y32C N54I I58Y showed nd, nd, nd (controls 0 of 9).
The variant H35F S55P A61L showed nd, nd, nd (controls 2 of 9).
The variant N54G G56C D62S showed 3.09, 2.54, 4.37 (mean 3.33; controls 0 of 9).
The variant T28Q A33R N54F showed nd, nd, nd (controls 0 of 9).

The first 5 entries again:

The variant I51E G103E Y105T showed 3.70, nd, nd (controls 0 of 9).
The variant F27D I58E S63Q showed nd, nd, nd (controls 0 of 9).
The variant G59W S63N G102Y showed nd, nd, nd (controls 0 of 9).
The variant D31R H35R Y105T showed nd, nd, nd (controls 0 of 9).
The variant F29C G59T G104S showed nd, nd, nd (controls 1 of 9).

Nonspecific signal, from three strains lacking the peptide, appeared in 21% of pairings of library AAYL51, centred on 4.54 (5% of these signals below 3.26); values are not corrected for it. Also given: how often the same scFv was detected with the empty control strains.